Earlier results as cited in publication PMC7867784 (Translational Lung Cancer Research, 2021).

System: ALK-rearranged NSCLC
Settings: 300 mg BID; cited from earlier work

CCc1cc2c(cc1N1CCC(N3CCOCC3)CC1)C(C)(C)c1[nH]c3cc(C#N)ccc3c1C2=O [alectinib]
median PFS: > 27 months | response rate: 93.5%
